The values below come from ChEMBL document CHEMBL1124669, “Quaternary salts of 2-[(hydroxyimino)methyl]imidazole. 2. Preparation and in vitro and in vivo evaluation of 1-(alkoxymethyl)-2-[(hydroxyimino)methyl]-3-methylimida zolium halides for reactivation of organophosphorus-inhibited acetylcholinesterases” (1989).

The term LD50 denotes the dose expected to kill half of the subjects tested. High values mean a less toxic substance, low ones a more toxic substance.

One assay is filed under the species Mus musculus. The assay can be described thus: Compound was tested in mouse for significant protection against the lethal effects of 2xLD50 of soman without atropine.
Consider `CCCCOC[n+]1ccn(C)c1/C=N/O.[Cl-]`, for which the LD50 was determined as 705 µmol/kg.

The next assay deals with Mus musculus. The assay can be described thus: Protective index was expressed as LD50 with oxime/LD50 without oxime.
Turning to `COC[n+]1ccn(C)c1/C=N/O.[Cl-]`, the PI worked out at 3.

Take `Cn1cc[n+](COCCCc2ccccc2)c1/C=N/O.[Cl-]`: the PI worked out at 0.

For `C[n+]1ccccc1/C=N/O.[Cl-]`, the PI amounted to 2.5.

The next assay is filed under the species Mus musculus. As to the kind of experiment: Tested in mouse for significant protection against the lethal effects of 2xLD50 of soman without atropine.
As to `Cn1cc[n+](COC[n+]2ccn(C)c2/C=N/O)c1/C=N/O`, the LD50 amounted to 255 µmol/kg.

As for `Cn1cc[n+](COCc2cccc3ccccc23)c1/C=N/O.[Cl-]`, the LD50 turned out to be 43 µmol/kg.

`Cn1cc[n+](COC[n+]2ccccc2/C=N/O)c1/C=N/O.[Cl-].[Cl-]` showed an LD50 of 342 µmol/kg.

For `CCOC[n+]1ccn(C)c1/C=N/O.[Cl-]`, the LD50 was found to be 612 µmol/kg.

In the case of `Cn1cc[n+](COC(=O)c2ccc3ccccc3c2)c1/C=N/O.[Cl-]`, the LD50 was found to be 177 µmol/kg.

Regarding `CCCC(=O)OC[n+]1ccn(C)c1/C=N/O.[Cl-]`, the LD50 is 511 µmol/kg.

With `CC(OC[n+]1ccn(C)c1/C=N/O)C(C)(C)C.[Cl-]` (stereo not given), the 50% lethal dose (LD50) was 492 µmol/kg.

Compound `CCC(OC[n+]1ccn(C)c1/C=N/O)C(C)(C)C.[Cl-]` (stereo not given) showed an LD50 of 222 µmol/kg.

On to `CCCC(CC)OC[n+]1ccn(C)c1/C=N/O.[Cl-]` (stereo not given), for which the LD50 is 321 µmol/kg.

Compound `CC(C)OC[n+]1ccn(C)c1/C=N/O.[Cl-]` showed an LD50 of 417 µmol/kg.

`Cn1cc[n+](COCc2ccccc2)c1/C=N/O.[Cl-]` had an LD50 of 646 µmol/kg.

As for `Cn1cc[n+](COCC2CC2)c1/C=N/O.[Cl-]`, the LD50 was determined as 621 µmol/kg.

`Cn1cc[n+](COC2CCCCC2)c1/C=N/O.[Cl-]` had an LD50 of 261 µmol/kg.

`CCCCCCOC[n+]1ccn(C)c1/C=N/O.[Cl-]` displayed a median lethal dose (LD50) of 288 µmol/kg.

`Cn1cc[n+](COC2CCCCCCCCCCC2)c1/C=N/O.[Cl-]` showed an LD50 of 161 µmol/kg.

In the case of `Cn1cc[n+](CCCC[n+]2ccn(C)c2/C=N/O)c1/C=N/O`, the LD50 was determined as 372 µmol/kg.

For `COC[n+]1ccn(C)c1/C=N/O.[Cl-]`, the LD50 was determined as 620 µmol/kg.

As for `CCCCCCCCOC[n+]1ccn(C)c1/C=N/O.[Cl-]`, the LD50 stood at 94 µmol/kg.

The compound `O/N=C\c1cccc[n+]1COCCOC[n+]1ccccc1/C=N/O.[Cl-].[Cl-]` returned an LD50 of 278 µmol/kg.

With `Cn1cc[n+](COC2CCC2)c1/C=N/O.[Cl-]`, the LD50 worked out at 495 µmol/kg.

The compound `Cn1cc[n+](COC(=O)C(C)(C)C)c1/C=N/O.[Cl-]` came in with an LD50 of 372 µmol/kg.

On to `CCC(C)C(C)OC[n+]1ccn(C)c1/C=N/O.[Cl-]` (stereo not given), for which the LD50 was 167 µmol/kg.

In turn, `Cn1cc[n+](CCC[n+]2ccn(C)c2/C=N/O)c1/C=N/O` showed an LD50 of 124 µmol/kg.

Regarding `CCC(C)C(=O)OC[n+]1ccn(C)c1/C=N/O.[Cl-]` (stereo not given), the LD50 turned out to be 333 µmol/kg.

`Cn1cc[n+](COCCCc2ccccc2)c1/C=N/O.[Cl-]` returned a 50% lethal dose (LD50) of 585 µmol/kg.

For the compound `Cn1cc[n+](COCC2CCCc3ccccc32)c1/C=N/O.[Cl-]` (stereo not given), the LD50 was 199 µmol/kg.

The compound `Cn1cc[n+](COC2CCCCCC2)c1/C=N/O.[Cl-]` returned an LD50 of 193 µmol/kg.

The compound `Cn1cc[n+](COC2CCCCCCC2)c1/C=N/O.[Cl-]` gave an LD50 of 631 µmol/kg.

`Cn1cc[n+](COCC2CCCCC2)c1/C=N/O.[Cl-]` displayed an LD50 of 391 µmol/kg.

Take `CCCC(C)OC[n+]1ccn(C)c1/C=N/O.[Cl-]` (stereo not given): the LD50 stood at 651 µmol/kg.

Take `CC(CC(C)(C)C)OC[n+]1ccn(C)c1/C=N/O.[Cl-]` (stereo not given): the LD50 turned out to be 205 µmol/kg.

Compound `Cn1cc[n+](COCC(C)(C)C)c1/C=N/O.[Cl-]` returned an LD50 of 219 µmol/kg.

`CC(OC[n+]1ccn(C)c1/C=N/O)C1CCCCC1.[Cl-]` (stereo not given) gave an LD50 of 521 µmol/kg.

For `Cn1c(/C=N/O)[n+](C)c2ccccc21.[Cl-]`, the LD50 came out at 1400 µmol/kg.

Consider `Cn1cc[n+](COC2CCCC2)c1/C=N/O.[Cl-]`, for which the LD50 stood at 712 µmol/kg.

As to `CCCC(OC[n+]1ccn(C)c1/C=N/O)C1CCCC1.[Cl-]` (stereo not given), the LD50 came out at 184 µmol/kg.
